The values below are quoted from earlier work in US8148388B2, “2,4 (4,6) pyrimidine derivatives” (Janssen Pharmaceutica, N.V., priority 2004, dated 2012).

The series deals with breast cancer. Particulars: patients; cited from earlier work.

As to Trastuzumab [Herceptin], the “anti-tumour activity in clinical trials” value is recorded as “anti-tumour activity against breast cancer”.
